Data reported in paper PMC10436262, “Structure-Based Design of Inhibitors of the m^6A-RNA Writer Enzyme METTL3” (ACS Bio & Med Chem Au, 2023).

Chains of the proteins cited; added tags and fusions are not shown.
UniProt Q86U44, whole entry: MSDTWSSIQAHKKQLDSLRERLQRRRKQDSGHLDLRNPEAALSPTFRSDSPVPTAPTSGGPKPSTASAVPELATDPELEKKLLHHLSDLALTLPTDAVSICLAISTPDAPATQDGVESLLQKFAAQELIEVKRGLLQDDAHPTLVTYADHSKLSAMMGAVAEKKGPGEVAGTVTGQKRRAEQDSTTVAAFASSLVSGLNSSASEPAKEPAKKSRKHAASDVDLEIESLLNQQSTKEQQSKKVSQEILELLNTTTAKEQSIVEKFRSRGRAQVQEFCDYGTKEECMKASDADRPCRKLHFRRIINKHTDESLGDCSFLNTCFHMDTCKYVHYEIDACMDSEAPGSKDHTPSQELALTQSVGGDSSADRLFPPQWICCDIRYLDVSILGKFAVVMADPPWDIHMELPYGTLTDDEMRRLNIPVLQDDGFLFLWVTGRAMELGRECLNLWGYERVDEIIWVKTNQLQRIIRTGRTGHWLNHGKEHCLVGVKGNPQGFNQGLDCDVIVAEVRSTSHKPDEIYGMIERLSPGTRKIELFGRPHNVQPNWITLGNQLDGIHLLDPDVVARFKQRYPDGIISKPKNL
UniProt Q9HCE5, whole entry partner: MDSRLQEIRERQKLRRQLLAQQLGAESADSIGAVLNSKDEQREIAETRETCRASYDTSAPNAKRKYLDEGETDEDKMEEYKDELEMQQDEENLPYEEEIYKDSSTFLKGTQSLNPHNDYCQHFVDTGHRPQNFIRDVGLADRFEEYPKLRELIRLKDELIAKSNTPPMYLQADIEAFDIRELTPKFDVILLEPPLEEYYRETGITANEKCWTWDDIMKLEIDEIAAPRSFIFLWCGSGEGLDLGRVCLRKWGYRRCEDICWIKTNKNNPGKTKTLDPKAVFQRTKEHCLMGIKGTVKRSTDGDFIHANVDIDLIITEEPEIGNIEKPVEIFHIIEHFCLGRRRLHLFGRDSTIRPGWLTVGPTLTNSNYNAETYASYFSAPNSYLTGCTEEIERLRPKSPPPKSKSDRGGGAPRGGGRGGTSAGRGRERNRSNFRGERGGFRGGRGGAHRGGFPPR

Target: METTL3/METTL14 (Homo sapiens, UniProt Q86U44)
Assay: METTL3 enzymatic inhibition assay by homogeneous time-resolved fluorescence (HTRF)
Format: biochemical
Details: for IC50: HTRF assay; for S/R Ratio: ratio of IC50 of S isomer to R isomer
[1] = read-out: IC50 (µM) R, R isomer
[2] = read-out: IC50 (µM) S, S isomer

S/R Ratio	IC50 [1] [µM]	IC50 [2] [µM]	SMILES	IC50 (racemic mixture) [µM]
			CC(C)C1N(Cc2ccc(C(=O)NCC3(O)CCCN(c4cc(NCc5cccc6sccc56)ncn4)C3)c(O)c2)CC12CCC2 (racemic)	0.18
			CC1(C)CCN(Cc2ccc(C(=O)NCC3(O)CCCN(c4cc(N)ncn4)C3)c(O)c2)CC1 (racemic)	4.1
			CC1(C)CCN(Cc2ccc(C(=O)NCC3(O)CCCN(c4ccncn4)C3)c(O)c2)CC1 (racemic)	57
5.8	4.5	26	CC1(C)CCN(Cc2ccc(C(=O)NCC3(O)CCCN(c4ncnc5[nH]ccc45)C3)cc2)CC1 (racemic)	9.8
			CNc1cc(N2CCCC(O)(CNC(=O)c3ccc(CN4CC5(CCC5)C4C4CC4)cc3O)C2)ncn1 (racemic)	4.9
3.3	2.9	9.7	CNc1cc(N2CCCC(O)(CNC(=O)c3ccc(CN4CCC(C)(C)CC4)cc3O)C2)ncn1 (racemic)	2.6
			Cc1cc(N2CCCC(O)(CNC(=O)c3ccc(CN4CCC(C)(C)CC4)cc3O)C2)ncn1 (racemic)	51
			O=C(NCC1(O)CCCN(c2ncnc3[nH]ccc23)C1)c1ccc(CN2CC3(CCC3)C2C2CC2)cc1O (racemic)	0.74

Where two headings read alike, the source gives them in different places.
